Experimental data reported in patent US9918989B2, “Combination therapies for malaria” (The Regents of the University of California, priority 2013, dated 2018).

Tested on: Anopheles stephensi p38 MAPK
Assay: MK2 phosphorylation in LPS-stimulated ASE cells, western blot
Format: cell-based
Conditions: ASE cells pre-incubated with 10 μM inhibitor, 2 h later 1 μg/ml LPS

## Cc1ccc(-n2nc(C(C)(C)C)cc2NC(=O)Nc2ccc(OCCN3CCOCC3)c3ccccc23)cc1 [BIRB 796, 1-[5-tert-butyl-2-(4-methylphenyl)pyrazol-3-yl]-3-[4-(2-morpholin-4-ylethoxy)naphthalen-1-yl]urea]
  p-MK2 levels (phosphorylation of MK2): undetectable
